Reference: patent publication US6262116A, “Transcription therapy for cancers” (Sloan-Kettering Institute for Cancer Research, priority 1998, dated 2001)

Tested on: acute promyelocytic leukemia
Experiment: Clinical study in a patient with acute promyelocytic leukemia
Type: in vivo, human
Settings: first 11 days, all-trans retinoic acid alone, 45 mg/m^2/day oral

SMILES: CC1=C(/C=C/C(C)=C/C=C/C(C)=C/C(=O)O)C(C)(C)CCC1 [retinoic acid, all-trans-retinoic acid]
- platelet count: fell progressively; also recorded: progressive decline in platelet count

“Also recorded” adds a separate entry of the source.
